# Earlier results as cited in paper PMC3152630 (Pharmaceutical research, 2011).
# Conditions: previous studies using microneedles; ref [21],[25]; cited from earlier work
substance,measurement,value
Insulin,plasma insulin delivered using microneedles,0.2 to 1.2 ng/mL
